ChEMBL document CHEMBL2424635, “Discovery of novel histidine-derived lipo-amino acids: applied in the synthesis of ultra-short antimicrobial peptidomimetics having potent antimicrobial activity, salt resistance and protease stability” (Eur J Med Chem, 2013)
Converted amounts (≈) assume the structure as drawn.

What was measured:
Staphylococcus aureus [1] = experiment: Antibacterial activity against Staphylococcus aureus KCTC 1621 assessed as growth inhibition after 18 to 20 hrs by broth microdilution method in presence of NaCl; format: functional
Bacillus subtilis [2] = experiment: Antibacterial activity against Bacillus subtilis KCTC 3068 assessed as growth inhibition after 18 to 20 hrs by broth microdilution method in presence of NaCl; format: functional
[3] = tested on: Staphylococcus epidermidis; experiment: Antibacterial activity against Staphylococcus epidermidis KCTC 1917 assessed as growth inhibition after 18 to 20 hrs by broth microdilution method in presence of NaCl; format: functional
Salmonella typhimurium [4] = experiment: Antibacterial activity against Salmonella typhimurium KCTC 1926 assessed as growth inhibition after 18 to 20 hrs by broth microdilution method in presence of NaCl; format: functional, Salmonella enterica subsp. enterica serovar Typhimurium; details: Salmonella enterica
Pseudomonas aeruginosa [5] = experiment: Antibacterial activity against Pseudomonas aeruginosa KCTC 1637 assessed as growth inhibition after 18 to 20 hrs by broth microdilution method in presence of NaCl; format: functional
Escherichia coli [6] = experiment: Antibacterial activity against Escherichia coli KCTC 1682 assessed as growth inhibition after 18 to 20 hrs by broth microdilution method in presence of NaCl; format: functional
[7] = Hemolytic activity in human RBC assessed as hemoglobin release after 1 hr; format: ADME, cell-based, Erythrocyte; details: red blood cells (RBC)
Staphylococcus aureus [8] = experiment: Antibacterial activity against Staphylococcus aureus KCTC 1621 assessed as growth inhibition after 18 to 20 hrs by broth microdilution method; format: functional
Bacillus subtilis [9] = experiment: Antibacterial activity against Bacillus subtilis KCTC 3068 assessed as growth inhibition after 18 to 20 hrs by broth microdilution method; format: functional
[10] = tested on: Staphylococcus epidermidis; experiment: Antibacterial activity against Staphylococcus epidermidis KCTC 1917 assessed as growth inhibition after 18 to 20 hrs by broth microdilution method; format: functional
Salmonella typhimurium [11] = experiment: Antibacterial activity against Salmonella typhimurium KCTC 1926 assessed as growth inhibition after 18 to 20 hrs by broth microdilution method; format: functional, Salmonella enterica subsp. enterica serovar Typhimurium; details: Salmonella enterica
Pseudomonas aeruginosa [12] = experiment: Antibacterial activity against Pseudomonas aeruginosa KCTC 1637 assessed as growth inhibition after 18 to 20 hrs by broth microdilution method; format: functional
Escherichia coli [13] = experiment: Antibacterial activity against Escherichia coli KCTC 1682 assessed as growth inhibition after 18 to 20 hrs by broth microdilution method; format: functional

CC[C@H](C)[C@H](NC(=O)CN)C(=O)NCC(=O)N[C@@H](C)C(=O)N[C@H](C(=O)N[C@@H](CC(C)C)C(=O)N[C@@H](CCCCN)C(=O)N[C@H](C(=O)N[C@@H](CC(C)C)C(=O)N[C@H](C(=O)N[C@H](C(=O)NCC(=O)N[C@@H](CC(C)C)C(=O)N1CCC[C@H]1C(=O)N[C@@H](C)C(=O)N[C@@H](CC(C)C)C(=O)N[C@H](C(=O)N[C@@H](CO)C(=O)N[C@@H](Cc1c[nH]c2ccccc12)C(=O)N[C@H](C(=O)N[C@@H](CCCCN)C(=O)N[C@@H](CCCNC(=N)N)C(=O)N[C@@H](CCCCN)C(=O)N[C@@H](CCCNC(=N)N)C(=O)N[C@@H](CCC(N)=O)C(=O)N[C@@H](CCC(N)=O)C(N)=O)[C@@H](C)CC)[C@@H](C)CC)[C@@H](C)O)[C@@H](C)O)C(C)C)C(C)C [MELITTIN]
MIC (Staphylococcus aureus [1]): 2 µg/mL
MIC (Bacillus subtilis [2]): 8 µg/mL
MIC [3]: 4 µg/mL
MIC (Salmonella typhimurium [4]): 16 µg/mL
MIC (Pseudomonas aeruginosa [5]): 8 µg/mL
MIC (Escherichia coli [6]): 8 µg/mL
HC50 at 1 h [7]: 10.5 µg/mL
MIC (Staphylococcus aureus [8]): 4 µg/mL (≈ 1.41 µM)
MIC (Bacillus subtilis [9]): 4 µg/mL (≈ 1.41 µM)
MIC [10]: 8 µg/mL (≈ 2.81 µM)
MIC (Salmonella typhimurium [11]): 8 µg/mL (≈ 2.81 µM)
MIC (Pseudomonas aeruginosa [12]): 8 µg/mL (≈ 2.81 µM)
MIC (Escherichia coli [13]): 8 µg/mL (≈ 2.81 µM)
